Amino acid sequences for entries named in this document (tags omitted).
UniProt Q9UIV1, whole entry: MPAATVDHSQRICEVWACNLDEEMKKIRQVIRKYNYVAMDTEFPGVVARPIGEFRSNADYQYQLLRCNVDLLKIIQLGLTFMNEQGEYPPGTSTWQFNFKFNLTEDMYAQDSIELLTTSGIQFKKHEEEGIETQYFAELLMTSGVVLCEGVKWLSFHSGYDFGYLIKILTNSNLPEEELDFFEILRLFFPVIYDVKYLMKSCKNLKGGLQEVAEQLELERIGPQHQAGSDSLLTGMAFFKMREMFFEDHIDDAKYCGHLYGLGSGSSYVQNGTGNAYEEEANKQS

According to patent US20260199485A1, “RNA DEGRADERS AND USES THEREOF” (Arrakis Therapeutics, Inc., priority 2022, published 2026):

target: CNOT7 (Homo sapiens, UniProt Q9UIV1); experiment: Binding of compounds to CNOT7 by surface plasmon resonance (SPR); conditions: Table 5; dissociation constant for CNOT7 by SPR
Experimental: Surface plasmon resonance (SPR) was used to evaluate the binding of compounds to CNOT7. Experiments were performed on a Biacore 8K (Cytiva) with a running buffer consisting of 20 mM HEPES pH7.5, 100 mM KCl, 3 mM MgCl2, 1 mM TCEP, 0.05% tween-20, 2% DMSO. Briefly, biotinylated CNOT7 (Ichor Life Sciences) at a concentration of 70 μg/ml was immobilized to a streptavidin coated chip (Cytiva sensor chip SA) for 1200 sec at a flow rate of 5 μl/min (typical immobilization level 7,500 RU). For compound binding experiments, various concentrations of analyte were flowed over the chip with 120 sec association phase, 120 sec dissociation phase, at a flow rate of 30 ul/min and collection rate of 10 Hz. Reference channel subtraction and solvent correction were applied to all sensograms prior to data analysis. Sensograms were fit to 1:1 steady state affinity model. FIGS. 3 and 4 show the binding of exemplary compounds and the AMP control (a known CNOT7 active site binder) at various concentrations to CNOT7.

Row | Kd [µM] | Structure (SMILES)
1 | 1 to 25 | COc1ccc([C@H](NC(=O)CSc2nc(=O)[nH]cc2C)C2CC2)cc1

same assay, conditions: dissociation constant by SPR, Table 7

Row | Structure (SMILES) | Kd [µM]
2 | COCCOCC[C@H](Sc1nc(=O)[nH]cc1C)C(=O)NCc1ccc(OC)cc1 [Compound I-167, (2S)-4-(2-methoxyethoxy)-N-[(4-methoxyphenyl)methyl]-2-[(5-methyl-2-oxo-1H-pyrimidin-4-yl)sulfanyl]butanamide] | 1 to 25
3 | COC[C@@H](Sc1nc(=O)[nH]cc1C)C(=O)NCc1ccc2c(c1)CC(=O)N2C | 1 to 25
4 | COc1ccc(CNC(=O)[C@@H](CCc2ccc(O)cc2)Sc2nc(=O)[nH]cc2C)cc1 | 1 to 25
5 | COC[C@H](Sc1nc(=O)[nH]cc1C)C(=O)N1CCc2cc(OC)ccc2[C@H]1C | 1 to 25
6 | C#CCOCCOCCOCCOC[C@@H]1CN(C(=O)CSc2nc(=O)[nH]cc2Cl)[C@H](C)c2ccc(OC)cc21 | > 25
7 | COc1ccc2c(c1)CCN(C(=O)CSc1nc(=O)[nH]cc1Cl)[C@@H]2C | > 25
8 | C#CCOCCOCCOCCOC[C@H]1CN(C(=O)CSc2nc(=O)[nH]cc2C)Cc2ccc(OC)cc21 | > 25

The remaining lines, values ahead:

Row | Kd [µM] | Structure (SMILES)
9 | > 25 | COc1ccc2c(c1)[C@@H](COCCOCCOCCOCCN=[N+]=[N-])CN(C(=O)CSc1nc(=O)[nH]cc1Cl)[C@H]2C
10 | > 25 | COc1ccc(CNC(=O)[C@H](Cc2ccc(O)cc2)Sc2nc(=O)[nH]cc2C)cc1
11 | 1 to 25 | COC[C@@H](Sc1nc(=O)[nH]cc1C)C(=O)N1CCc2cc(OC)ccc2[C@H]1C
12 | 1 to 25 | COc1ccc(CNC(=O)[C@@H](Cc2ccc(O)cc2)Sc2nc(=O)[nH]cc2C)cc1
13 | 1 to 25 | COCCOCC#CC[C@@H](Sc1nc(=O)[nH]cc1C)C(=O)NCc1ccc(OC)cc1
14 | 1 to 25 | C#CCOCCOCCOCCOC[C@@H]1CN(C(=O)CSc2nc(=O)[nH]cc2C)Cc2ccc(OC)cc21
